Results as given in paper PMC3677530 (Analytical biochemistry, 2013).

Chains of the proteins cited; added tags and fusions are not shown.
UniProt P21554, whole entry: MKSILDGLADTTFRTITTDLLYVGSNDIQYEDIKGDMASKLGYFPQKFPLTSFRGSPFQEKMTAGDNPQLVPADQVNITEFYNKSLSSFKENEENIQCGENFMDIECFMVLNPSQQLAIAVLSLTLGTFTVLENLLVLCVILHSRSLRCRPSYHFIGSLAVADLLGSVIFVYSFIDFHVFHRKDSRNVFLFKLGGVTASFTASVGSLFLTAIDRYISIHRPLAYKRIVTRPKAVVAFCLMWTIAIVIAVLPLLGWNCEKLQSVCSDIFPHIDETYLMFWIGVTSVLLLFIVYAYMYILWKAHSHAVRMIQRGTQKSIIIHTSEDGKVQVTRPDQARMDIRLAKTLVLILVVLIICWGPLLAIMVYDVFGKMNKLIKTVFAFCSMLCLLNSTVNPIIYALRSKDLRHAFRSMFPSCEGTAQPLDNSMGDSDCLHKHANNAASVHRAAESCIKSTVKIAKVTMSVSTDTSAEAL
UniProt P34972, whole entry: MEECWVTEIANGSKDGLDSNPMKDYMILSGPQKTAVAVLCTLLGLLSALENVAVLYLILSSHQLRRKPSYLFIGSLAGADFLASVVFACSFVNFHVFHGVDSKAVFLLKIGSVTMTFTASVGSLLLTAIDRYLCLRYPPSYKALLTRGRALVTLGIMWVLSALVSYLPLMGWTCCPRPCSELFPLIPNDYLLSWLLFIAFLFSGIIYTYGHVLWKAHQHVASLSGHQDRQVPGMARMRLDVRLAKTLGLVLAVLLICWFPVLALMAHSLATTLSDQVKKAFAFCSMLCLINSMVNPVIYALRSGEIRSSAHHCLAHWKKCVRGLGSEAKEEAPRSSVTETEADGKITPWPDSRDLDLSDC

What was measured:
[1] = target: human cannabinoid CB1 receptor (Homo sapiens, UniProt P21554)
[2] = target: human cannabinoid CB2 receptor (Homo sapiens, UniProt P34972); conditions: CHO-CB2, data not shown

SMILES: Cc1c(C(=O)NN2CCCCC2)nn(-c2ccc(Cl)cc2Cl)c1-c1ccc(I)cc1 [AM251]
- inhibition of internalization (CB1) [1]: 39.6%

SMILES: Cc1c(C(=O)c2cccc3ccccc23)c2cccc3c2n1[C@H](CN1CCOCC1)CO3 [Win 55,212-2]
- CB2 internalization induced by agonist [2]: failed to induce CB2 internalization
